One experiment concerns the target PIM1 (Homo sapiens, UniProt P11309). The experiment can be described thus: LANCE Ultra kinase assay, PIM1. The format is biochemical. (In TR-FRET formats the signal depends on donor and acceptor labels being close together.)
The next experiment has as its target PIM2 (Homo sapiens, UniProt Q9P1W9). The experiment can be described thus: LANCE Ultra kinase assay, PIM2. The class given is biochemical.
A further experiment concerns the target PIM3 (Homo sapiens, UniProt Q86V86). Briefly: LANCE Ultra kinase assay, PIM3. The format is biochemical.
In another experiment the test system is HepG2. Briefly: CellTiter-Glo cancer cell growth inhibition, HepG2. The format is cell-based, human. The note with it: read-out: EC50 HepG2, 72 hours. A general note: ATP-based viability assays read luminescence as a measure of living cells.
A further experiment has as its system Huh7. The experiment can be described thus: CellTiter-Glo cancer cell growth inhibition, Huh7. The class given is cell-based. The note with it: read-out: EC50 Huh7, 72 hours.
A further experiment deals with DU-145. Briefly: CellTiter-Glo cancer cell growth inhibition, DU-145. The class given is cell-based. The note with it: read-out: EC50 DU-145, 72 hours.
Another experiment has as its system A673. The experiment can be described thus: CellTiter-Glo cancer cell growth inhibition, A673. The class given is cell-based. Conditions: read-out: EC50 A673, 72 hours.
Where [1] appears, read: read-out: IC50 PIM1, ATP 0.1 mM.
The mark [2] stands for this setting: read-out: IC50 PIM2, ATP 0.1 mM.
Where [3] appears, read: read-out: IC50 PIM3, ATP 0.1 mM.

The chains behind the UniProt entries cited, without tags or fusion partners.
UniProt P11309, whole entry: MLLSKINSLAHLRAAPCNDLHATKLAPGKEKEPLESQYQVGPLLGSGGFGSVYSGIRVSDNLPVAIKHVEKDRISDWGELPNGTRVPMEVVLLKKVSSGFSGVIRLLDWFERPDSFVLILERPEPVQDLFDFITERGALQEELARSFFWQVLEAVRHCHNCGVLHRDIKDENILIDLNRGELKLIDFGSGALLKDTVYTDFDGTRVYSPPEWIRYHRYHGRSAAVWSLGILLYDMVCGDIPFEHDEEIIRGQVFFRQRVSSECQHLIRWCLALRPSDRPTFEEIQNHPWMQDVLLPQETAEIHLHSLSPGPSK
UniProt Q9P1W9, whole entry: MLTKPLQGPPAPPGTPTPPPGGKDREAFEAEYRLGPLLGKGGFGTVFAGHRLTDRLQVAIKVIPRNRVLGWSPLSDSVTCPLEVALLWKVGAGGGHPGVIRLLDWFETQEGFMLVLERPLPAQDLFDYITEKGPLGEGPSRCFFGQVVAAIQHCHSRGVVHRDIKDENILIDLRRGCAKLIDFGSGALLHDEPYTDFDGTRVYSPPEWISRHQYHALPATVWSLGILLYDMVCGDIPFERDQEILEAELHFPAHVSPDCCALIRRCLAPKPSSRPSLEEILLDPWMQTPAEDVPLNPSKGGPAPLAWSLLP

SMILES strings stand for the structures. Like-named read-outs stand apart in the source and are kept apart here.

For the compound `O=C1NC(=O)c2c1c1c3cc(F)c(O)cc3[nH]c1c1c2c2ccncc2n1CCN1CCOCC1`, the IC50 at PIM1 (setting [1]) is 0.32 nM; at PIM1 (read-out: IC50 PIM1, ATP 1 mM) it was 0.33 nM; at PIM2 (setting [2]), 5 nM; at PIM2 (read-out: IC50 PIM2, ATP 1 mM) it was 0.23 nM; at PIM3 (setting [3]) it was 0.21 nM; at PIM3 (read-out: IC50 PIM3, ATP 1 mM) it was 2.15 nM. Moreover, the EC50 worked out at 25 nM in the experiment with HepG2, 14 nM in the experiment with Huh7, 13 nM with DU-145 and 6.2 nM with A673.
In the case of `O=C1NC(=O)c2c1c1c3ccncc3[nH]c1c1c2c2cc(F)c(O)cc2n1CCN1CCOCC1`, the IC50 at PIM1 (setting [1]) was determined as 0.23 nM; on PIM1 (read-out: IC50 PIM1, ATP 1 mM), 0.26 nM; on PIM2 (setting [2]) it was 39 nM; at PIM2 (read-out: IC50 PIM2, ATP 1 mM), 0.24 nM; on PIM3 (setting [3]), 0.21 nM; at PIM3 (read-out: IC50 PIM3, ATP 1 mM), 1.34 nM. For the same compound, the EC50 was 85 nM with HepG2, 50 nM with Huh7 and 11 nM with DU-145.

One may read the IC50 as the concentration needed to halve the response being measured. One may read the EC50 as the concentration giving half of the maximal effect.

These data come from patent US20220274997A1, “PIM KINASE INHIBITOR COMPOSITIONS AND USES THEREOF” (Snap Bio, Inc., priority 2019, published 2022).
